Results taken from article PMC7503597 (International Journal of Molecular Sciences, 2020).

The chains behind the UniProt entries cited, without tags or fusion partners. Where a name states a change or a piece, a line headed by the entry shows the natural chain unless it says otherwise.
UniProt P35462, whole entry: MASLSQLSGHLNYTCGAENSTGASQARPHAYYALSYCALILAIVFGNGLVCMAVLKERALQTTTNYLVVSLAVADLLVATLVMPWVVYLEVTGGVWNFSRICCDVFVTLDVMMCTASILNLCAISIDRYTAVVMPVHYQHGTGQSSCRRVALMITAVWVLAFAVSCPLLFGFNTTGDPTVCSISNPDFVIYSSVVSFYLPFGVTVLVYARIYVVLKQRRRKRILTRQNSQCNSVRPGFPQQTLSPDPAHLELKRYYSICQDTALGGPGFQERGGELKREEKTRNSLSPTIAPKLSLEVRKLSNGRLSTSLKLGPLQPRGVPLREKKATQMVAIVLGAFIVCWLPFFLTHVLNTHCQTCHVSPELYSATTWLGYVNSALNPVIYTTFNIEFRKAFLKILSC

Target: T1, wild-type D3R (hD3R) (Homo sapiens, UniProt P35462)
T1 construct: gene DRD3
Assay: biochemical

Work on CCN1CCC[C@H]1CNC(=O)c1cc(S(N)(=O)=O)ccc1OC [S-(−)-sulpiride] yielded a pKi of 7.20.

pKi: −log10 of the molar value.
